Test system: human brain E4ORF1+ brain endothelial cell monolayers

VEGF
permeability response to VEGF: responsive

From patent publication US11786559B2, “Blood-brain barrier comprising engineered endothelial cells” (ANGIOCRINE BIOSCIENCE, INC., priority 2016, dated 2023)
